Source: patent US20260242416A1, “ANTIMICROBIAL PEPTIDES” (priority 2023, published 2026)

Assays:
E. coli ATCC 25922 = type: cell-based, Escherichia coli
Protocol: (§1) Bacteria were grown overnight at 37° C. in Mueller-Hinton Broth (MHB; Sigma-Aldrich, St. Louis. MO, USA) in a shaking incubator and aliquoted into cryovials with a 50% glycerol solution in a 1:1 ratio. No additives were added to the MHB during the growth of bacterial isolates. Glycerol stocks were stored at −80° C.
(§2) The antimicrobial activity of the putative AMPs was determined by a broth microdilution assay as described by the Clinical and Laboratory Standards Institute, with the published adaptations for testing of cationic peptides. Escherichia coli 25922 and Staphylococcus aureus 29213 isolates were purchased from the American Type Culture Collection (ATCC; Manassas, VA, USA). […] Isolated colonies were suspended in MHB and the optical density was measured with a spectrophotometer to create an initial inoculum concentration of approximately 1×10^8 cfu/mL. […]
(§3) Lyophilized 80 μg peptide aliquots synthesized by GenScript (Piscataway, NJ, USA) were resuspended to 1.28 mg/mL with UltraPure water (Thermo Fisher Scientific, Waltham, MA, USA) and serially diluted in polypropylene 96-well microtiter plates (Greiner Bio-One #650261, Kremsmunster, Austria) from 128 down to 0.5 μg/mL. […] The minimum inhibitory concentration (MIC) was determined as the lowest peptide concentration where there was no visible bacterial growth.

[1] = system: Salmonella enterica serovar Enteritidis (human clinical isolate); type: cell-based
Protocol: as §1, §2, §3

S. aureus ATCC 29213 = type: cell-based, Staphylococcus aureus
Protocol: as §1, §2, §3

CC[C@H](C)[C@H](NC(=O)[C@H](CCCNC(=N)N)NC(=O)CNC(=O)[C@@H](NC(=O)[C@@H]1CCCN1C(=O)[C@H](Cc1ccccc1)NC(=O)[C@H](CCC(N)=O)NC(=O)[C@H](CC(C)C)NC(=O)CNC(=O)[C@H](C)N)C(C)C)C(=O)N[C@@H](Cc1c[nH]cn1)C(=O)N[C@@H](CCCNC(=N)N)C(=O)N[C@@H](Cc1c[nH]cn1)C(=O)N[C@@H](CC(C)C)C(=O)N[C@@H](CCCCN)C(=O)N[C@H](C(=O)N[C@@H](CCCNC(=N)N)C(=O)O)[C@@H](C)O [PeNi6, AGLQFPVGRIHRHLKTR]
>128/>128/>128 ug/mL: MIC (ug/mL) E. coli (E. coli ATCC 25922) | MIC (ug/mL) S. Enteritidis [1] | MIC (ug/mL) S. aureus (S. aureus ATCC 29213)
